Measurements reported in article PMC4869338, “Pre-clinical evaluation of CYP 2D6 dependent drug–drug interactions between primaquine and SSRI/SNRI antidepressants” (Malaria Journal, 2016).

Key:
[1] = tested on: primary human hepatocytes; assay: Primaquine metabolism in pooled primary human hepatocytes pre-treated with antidepressants; format: in vitro ADME; conditions: primaquine 1 μM, 4-h incubation, no SSRI/SNRI pre-treatment
Procedure: Cryopreserved, pooled, human, primary hepatocytes were flash thawed in a 37 °C bath for 1 min. One vial of the thawed hepatocytes (5 million cells/vial) was added to 40 ml of pre-warmed thawing buffer, mixed thoroughly by gentle pipetting, and centrifuged at 72×g for 6 min. The supernatant was then aspirated and the pellet resuspended in hepatocyte incubation buffer (InVitroGRO HI media, BioreclamationIVT, Baltimore, MD, USA). The hepatocytes were then seeded onto 12-well culture plates, approximately 7 × 10^5 hepatocytes/ml per well, and incubated in a humidified 5 % CO2/95 % air incubator for 30 min prior to the addition of compounds.
Primaquine metabolism with primary, human, hepatocyte culture was conducted according to the methods published by Jin et al.. Antidepressant compounds (final concentration of 10 μM) were pre-incubated with hepatocyte culture plates for 15 min prior to treatment with primaquine at 37 °C. Following the addition of primaquine (final concentration of 1 μM), aliquots (150 μl) were collected at 0 and 240 min; 240-min incubations were chosen for hepatocyte studies because of the robust primaquine metabolism signal observed on this timescale as previously reported (~40 % [5]). All reactions were stopped by adding an equal volume of acetonitrile. […] Samples were analysed immediately after sample collection.

[2] = tested on: Plasmodium berghei sporozoites; conditions: P. berghei infected mice; day 31; primaquine 20 mg/kg/day for 3 days; fluoxetine 4 mg/kg/day for 5 days where given; five mice per group
CYP2D6 = conditions: cited from earlier work
CYP2C19 = conditions: cited from earlier work
CYP3A4 = conditions: cited from earlier work
CYP1A2 = conditions: cited from earlier work

COc1cc(NC(C)CCCN)c2ncccc2c1 (stereo not drawn) [primaquine]
relative per cent primaquine remaining [1]: 60%
mice surviving the duration of the experiment [2]: 5/5

CN[C@H]1CC[C@@H](c2ccc(Cl)c(Cl)c2)c2ccccc21 [sertraline]
Enzymes inhibited by antidepressant: CYP2D6 (CYP2D6): CYP2D6 (weak to moderate), CYP1A2 (weak), CYP2C9 (weak), CYP2C19 (weak), CYP3A4 (weak)
Enzymes inhibited by antidepressant: CYP2C19 (CYP2C19): CYP2D6 (weak to moderate), CYP1A2 (weak), CYP2C9 (weak), CYP2C19 (weak), CYP3A4 (weak)
Enzymes inhibited by antidepressant: CYP3A4 (CYP3A4): CYP2D6 (weak to moderate), CYP1A2 (weak), CYP2C9 (weak), CYP2C19 (weak), CYP3A4 (weak)
Enzymes inhibited by antidepressant: CYP1A2 (CYP1A2): CYP2D6 (weak to moderate), CYP1A2 (weak), CYP2C9 (weak), CYP2C19 (weak), CYP3A4 (weak)
